Results as given in ChEMBL document CHEMBL1250451, “Mechanistic insights into a Ca2+-dependent family of alpha-mannosidases in a human gut symbiont” (Nat Chem Biol, 2010).

What was measured:
Format in all cases: protein assay
[1] = target: T1, Alpha-1,2-mannosidase, putative (BT_3773) (Bacteroides thetaiotaomicron) (UniProt Q8A193); test: Activity of Bacteroides thetaiotaomicron GH92 alpha-mannosidase GH92 alpha-mannosidase 3773 assessed as mannose release at 1 mM after 16 hrs by HPLC relative to untreated control after 16 hrs by HPLC
T1 sequence (whole entry): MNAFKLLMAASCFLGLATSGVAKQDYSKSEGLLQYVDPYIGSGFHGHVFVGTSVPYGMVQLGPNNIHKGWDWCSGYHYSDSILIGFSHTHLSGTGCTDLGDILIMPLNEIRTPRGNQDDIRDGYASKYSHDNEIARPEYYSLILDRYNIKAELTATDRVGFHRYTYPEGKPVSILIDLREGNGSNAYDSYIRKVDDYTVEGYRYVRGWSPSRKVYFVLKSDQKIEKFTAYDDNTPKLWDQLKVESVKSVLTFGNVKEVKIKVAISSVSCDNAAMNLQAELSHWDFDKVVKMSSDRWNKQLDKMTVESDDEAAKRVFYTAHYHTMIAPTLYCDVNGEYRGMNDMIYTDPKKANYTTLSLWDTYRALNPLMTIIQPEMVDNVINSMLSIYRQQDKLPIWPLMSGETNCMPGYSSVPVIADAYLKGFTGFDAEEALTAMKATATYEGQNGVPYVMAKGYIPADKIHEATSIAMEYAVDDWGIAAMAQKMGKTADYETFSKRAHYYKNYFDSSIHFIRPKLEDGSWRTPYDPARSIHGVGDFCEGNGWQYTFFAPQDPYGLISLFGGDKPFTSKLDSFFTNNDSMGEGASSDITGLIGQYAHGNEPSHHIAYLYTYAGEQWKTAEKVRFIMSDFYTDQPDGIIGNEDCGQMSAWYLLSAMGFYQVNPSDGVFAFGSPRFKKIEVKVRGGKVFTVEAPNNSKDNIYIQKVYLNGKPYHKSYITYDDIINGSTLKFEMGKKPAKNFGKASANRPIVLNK

[2] = target: T2, Alpha-1,2-mannosidase (BT_1769) (Bacteroides thetaiotaomicron) (UniProt Q8A6V7); test: Activity of Bacteroides thetaiotaomicron GH92 alpha-mannosidase GH92 alpha-mannosidase 1769 assessed as mannose release at 1 mM after 16 hrs by HPLC relative to untreated control after 16 hrs by HPLC
T2 sequence (whole entry): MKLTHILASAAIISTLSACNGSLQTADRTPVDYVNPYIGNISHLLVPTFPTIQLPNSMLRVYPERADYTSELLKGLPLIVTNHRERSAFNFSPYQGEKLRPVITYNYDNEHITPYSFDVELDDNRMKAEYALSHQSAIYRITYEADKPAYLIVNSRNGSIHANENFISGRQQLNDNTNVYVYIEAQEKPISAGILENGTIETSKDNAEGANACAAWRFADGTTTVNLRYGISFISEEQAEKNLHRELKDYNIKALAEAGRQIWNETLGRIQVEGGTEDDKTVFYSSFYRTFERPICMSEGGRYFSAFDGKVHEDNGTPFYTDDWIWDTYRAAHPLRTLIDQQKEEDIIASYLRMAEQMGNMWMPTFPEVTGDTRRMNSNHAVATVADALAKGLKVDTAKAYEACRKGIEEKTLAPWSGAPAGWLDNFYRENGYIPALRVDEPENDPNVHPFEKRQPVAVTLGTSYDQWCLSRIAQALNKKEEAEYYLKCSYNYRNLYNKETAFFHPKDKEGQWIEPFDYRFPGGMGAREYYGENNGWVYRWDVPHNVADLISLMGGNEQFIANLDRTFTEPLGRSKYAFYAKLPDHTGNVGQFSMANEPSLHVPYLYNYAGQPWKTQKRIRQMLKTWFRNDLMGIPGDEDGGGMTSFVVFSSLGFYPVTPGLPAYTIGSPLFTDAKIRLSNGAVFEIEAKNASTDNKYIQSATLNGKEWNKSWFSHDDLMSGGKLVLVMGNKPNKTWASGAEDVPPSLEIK

[3] = target: T3, Alpha-1,2-mannosidase (BT_1878) (Bacteroides thetaiotaomicron) (UniProt Q8A6K3); test: Activity of Bacteroides thetaiotaomicron GH92 alpha-mannosidase GH92 alpha-mannosidase 1878 assessed as mannose release at 1 mM after 16 hrs by HPLC relative to untreated control after 16 hrs by HPLC
T3 sequence (whole entry): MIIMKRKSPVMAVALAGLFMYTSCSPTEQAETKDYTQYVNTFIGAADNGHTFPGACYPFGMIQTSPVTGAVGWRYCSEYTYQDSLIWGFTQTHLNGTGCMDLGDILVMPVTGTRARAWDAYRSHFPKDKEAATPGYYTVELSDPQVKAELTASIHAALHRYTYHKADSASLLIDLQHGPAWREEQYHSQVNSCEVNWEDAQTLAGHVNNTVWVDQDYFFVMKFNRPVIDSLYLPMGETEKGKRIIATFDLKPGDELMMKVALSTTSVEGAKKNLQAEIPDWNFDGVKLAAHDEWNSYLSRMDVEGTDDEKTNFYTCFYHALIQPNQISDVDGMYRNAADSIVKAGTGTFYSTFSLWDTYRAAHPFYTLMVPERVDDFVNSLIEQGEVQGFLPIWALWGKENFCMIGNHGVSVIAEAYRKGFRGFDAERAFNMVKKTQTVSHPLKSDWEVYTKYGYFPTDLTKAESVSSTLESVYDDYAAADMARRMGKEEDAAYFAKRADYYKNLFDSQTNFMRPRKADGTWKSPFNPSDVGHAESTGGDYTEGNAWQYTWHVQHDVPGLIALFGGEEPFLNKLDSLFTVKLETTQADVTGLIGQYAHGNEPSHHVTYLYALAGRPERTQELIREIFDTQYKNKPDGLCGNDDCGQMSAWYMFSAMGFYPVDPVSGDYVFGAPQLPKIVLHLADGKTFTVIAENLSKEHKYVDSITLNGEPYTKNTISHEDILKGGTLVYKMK

Measured: Activity

OC[C@H]1O[C@H](O[C@@H]2[C@H](O)[C@@H](O)O[C@H](CO)[C@H]2O)[C@@H](O)[C@@H](O)[C@@H]1O
100%: [1] | [2] | [3]
